According to patent US20070086956A1, “Method for accelerating the rate of mucociliary clearance” (BAYER AKTIENGESELLSCHAFT, priority 1998, published 2007):

Key:
[1] = target: human factor Xa (human) (UniProt P00742); assay: enzyme inhibition, factor Xa 0.87 nM, aprotinin at 31 M as printed
[2] = target: human plasma kallikrein (human) (UniProt P03952); assay: enzyme inhibition, human plasma kallikrein 0.2 nM, substrate PFR-AMC
[3] = target: human plasmin (human) (UniProt P00747); assay: enzyme inhibition, human plasmin 50 pM, substrate GPK-AMC
[4] = target: Factor XIa (human) (UniProt P03951); assay: enzyme inhibition, FXIa 0.1 nM, substrate Boc-Glu(OBzl)-Ala-Arg-AMC

Row | % Inhibition [1] [%] | Ki [2] [nM] | Ki [3] [nM] | Ki [4] [nM] | Substance
1 | 5 | 23 | – | – | aprotinin (Trasylol®) (from UniProt P00974 36-93)
2 | – | – | 0.2 | 270 | aprotinin (Trasylol®) (from UniProt P00974 36-93) (other; other documents disagree on this pair)
